Measurements as given in patent publication US20080249081A1, “COMPOUNDS FOR THE TREATMENT OF PAIN AND SCREENING METHODS THEREFOR” (priority 2006, published 2008).

Chains of the proteins cited; added tags and fusions are not shown.
UniProt Q96LB1, whole entry: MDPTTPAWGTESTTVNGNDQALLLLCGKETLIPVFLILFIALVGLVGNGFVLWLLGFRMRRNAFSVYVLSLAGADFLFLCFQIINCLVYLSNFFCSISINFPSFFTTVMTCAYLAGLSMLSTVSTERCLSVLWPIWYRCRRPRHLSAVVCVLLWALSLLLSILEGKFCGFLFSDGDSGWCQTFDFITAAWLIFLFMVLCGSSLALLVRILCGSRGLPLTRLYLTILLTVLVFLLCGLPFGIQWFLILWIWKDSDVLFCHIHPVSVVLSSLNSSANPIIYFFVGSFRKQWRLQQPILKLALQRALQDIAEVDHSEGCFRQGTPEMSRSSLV
UniProt Q96LB2, whole entry: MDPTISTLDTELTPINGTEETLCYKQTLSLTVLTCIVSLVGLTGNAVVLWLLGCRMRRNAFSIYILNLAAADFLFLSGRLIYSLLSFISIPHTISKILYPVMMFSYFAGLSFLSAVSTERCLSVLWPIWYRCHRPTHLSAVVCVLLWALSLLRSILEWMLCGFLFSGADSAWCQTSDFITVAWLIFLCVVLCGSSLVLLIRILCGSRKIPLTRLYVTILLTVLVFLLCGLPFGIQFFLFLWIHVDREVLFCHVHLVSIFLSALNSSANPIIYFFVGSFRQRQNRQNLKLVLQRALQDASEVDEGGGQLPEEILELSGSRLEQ

Columns and labels:
human MrgX2 receptor = human MrgX2 receptor (Homo sapiens, UniProt Q96LB1); experiment: Receptor Selection and Amplification Technology (R-SAT) functional assay, transfected NIH3T3 cells
Procedure: (§1) The functional receptor assay, Receptor Selection and Amplification Technology (R-SAT), was used to investigate the pharmacological properties of test compounds on MRGX1 or MRGX2 receptors. R-SAT is disclosed in U.S. Pat. Nos. 5,707,798, 5,912,132, and 5,955,281, each of which is incorporated by reference herein in its entirety, including any drawings.
(§2) Briefly, NIH3T3 cells were grown in 96-well tissue culture plates to 70-80% confluence. Cells were transfected for 16-20 h with plasmid DNAs using Polyfect (Qiagen Inc.) and the manufacturer's protocols. R-SATs were generally performed with 4 ng/well of receptor and 20 ng/well of β-galactosidase plasmid DNA. The human MrgX1, simian MrgX1, human MrgX2 and simian MrgX2 receptor genes were amplified by PCR from genomic DNA using oligodeoxynucleotide primers as described in U.S. patent application Ser. No. 11/359,209, which is incorporated by reference herein in its entirety, including any drawings. For large-scale transfections, cells were transfected for 16-20 h, then trypsinized and frozen in DMSO. Frozen cells were later thawed, plated at ˜10,000 cells per well of a 96 half-area well plate that contained test compound. With both methods, cells were then grown in a humidified atmosphere with 5% ambient CO2 for five days. The medium was then removed from the plates and marker gene activity was measured by the addition of the β-galactosidase substrate o-nitrophenyl β-D-galactopyranoside (ONPG, in PBS with 0.5% NP-40). The resulting […] reaction was measured in a spectrophotometric plate reader (Titertek Inc.) at 420 nm. All data were analyzed using the computer program XLFit (IDBSm). Efficacy is defined as the percent maximal activation compared to activation by a control compound (BAM22 in the case of human or simian MRGX1, STIA or Cortistatin-14 in the case of human or simian MRGX2). pEC50 is the negative of log(EC50), where EC50 is the calculated molar concentration of test compound that produces 50% of maximum activation.
(§3) Efficacy is reported relative to the ligands Bam22 for MrgX1 and STIA for MrgX2.

human MrgX1 receptor = human MrgX1 receptor (Homo sapiens, UniProt Q96LB2); experiment: as above; details: pEC50 = negative log of molar EC50
Procedure: as §1, §2, §3

Row | Human-MrgX2 pEC50 (human MrgX2 receptor) | Human-MrgX1 pEC50 (human MrgX1 receptor) | Structure (SMILES)
1 | nr | 6.4 | N=C(N)NCCC[C@@H](C(N)=O)n1c(-c2cccc(Oc3ccccc3)c2)nc2cc(C(=O)NCc3cccc(C(F)(F)F)c3)ccc21
2 | nr | 5.8 | N=C(N)NCCCC(C(N)=O)n1c(-c2cccc(Oc3ccccc3)c2)nc2cc(C(=O)N3CCOCC3)ccc21 (stereo not drawn)
3 | nr | 5.6 | N=C(N)NCCCC(C(N)=O)n1c(-c2cccc(Oc3ccccc3)c2)nc2cc(C(=O)Nc3ccc4cn[nH]c4c3)ccc21 (stereo not drawn)
